Test results as given in patent US9126973B2, “Multiheteroaryl compounds as inhibitors of H-PGDS and their use for treating prostaglandin D2 mediated diseases” (Cayman Chemical Company, Incorporated, priority 2008, dated 2015).

Protein sequences, listed by entry. Tags and fused reporters are not part of them. Lines headed by an entry give the natural chain unless they say otherwise; changes in a name come on top.
UniProt O60760: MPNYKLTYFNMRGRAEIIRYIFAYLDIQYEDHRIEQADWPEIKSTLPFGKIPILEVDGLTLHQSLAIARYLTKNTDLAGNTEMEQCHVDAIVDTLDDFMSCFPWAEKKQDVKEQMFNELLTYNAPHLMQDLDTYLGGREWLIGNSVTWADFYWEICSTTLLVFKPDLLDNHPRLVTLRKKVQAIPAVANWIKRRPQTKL

Target: H-PGDS (Homo sapiens (Human), UniProt O60760)
Test: H-PGDS Fluorescence Polarization Binding Assay (FPBA)
Details: H-PGDS-MBP fusion enzyme, fluorescent probe, reduced glutathione 5 mM, 60-90 minutes at room temperature, 96-well format
Experimental: H-PGDS Fluorescence Polarization Binding Assay This assay essentially is available from Cayman Chemical Company as Catalog item #600007. The test data reported for the aforementioned Examples (H-PGDS FPBA IC50) were generated using a 96-well, instead of the 384-well, format. […] Assays were performed in 96-well microtiter plates in 100 μL of total sample volume. Excitation and emission wavelengths appropriate for the employed detection analyte were used. […] Twelve clean microfuge tubes were labeled A1 through A12. […] Dimethyl sulfoxide (50 μL) was added to each of tubes A1 through A11. The HQL-79 control solution was serially diluted by removing 50 μL from tube A12 and placing it in tube A11 with subsequent thorough mixing of the contents of tube A11. Next, 50 μL was removed from tube A11 and was placed into tube A10 with subsequent thorough mixing of the contents of tube A10. This process was repeated for tubes A9 through A2. […] The cocktail prepared was enough for either a standard 96-well, 384-well, or higher density plate. A test compound may be dissolved in DMSO, ethanol, or methanol at several concentrations when the titration endpoint is unknown. […] Assay cocktail (95 μL) was added to each plate well. […] The measurements were taken in the fluorescent polarization mode with the z-height set to the middle of the well and the G-factor set to 1.13 on a Tecan Safire 2 reader.

Molecule `CC(C)(C)OC(=O)N1CCC(c2ncc(-c3cnc(-c4ccccc4)nc3)[nH]2)C1` (racemic) [Example 28, (±)-tert-butyl 3-(5-(2-phenylpyrimidin-5-yl)-1H-imidazol-2-yl)pyrrolidine-1-carboxylate] has an IC50 of 150 nM.
